Literature values in patent US20260042854A1, “ANTI-GLP-1R ANTIBODIES AND USES THEREOF” (SCIWIND BIOSCIENCES USA CO., LTD, priority 2022, published 2026).

Sequences of proteins named here, by UniProt entry; tags and fusion partners are left off. Residues count along the entry.
UniProt P43220, 24-463: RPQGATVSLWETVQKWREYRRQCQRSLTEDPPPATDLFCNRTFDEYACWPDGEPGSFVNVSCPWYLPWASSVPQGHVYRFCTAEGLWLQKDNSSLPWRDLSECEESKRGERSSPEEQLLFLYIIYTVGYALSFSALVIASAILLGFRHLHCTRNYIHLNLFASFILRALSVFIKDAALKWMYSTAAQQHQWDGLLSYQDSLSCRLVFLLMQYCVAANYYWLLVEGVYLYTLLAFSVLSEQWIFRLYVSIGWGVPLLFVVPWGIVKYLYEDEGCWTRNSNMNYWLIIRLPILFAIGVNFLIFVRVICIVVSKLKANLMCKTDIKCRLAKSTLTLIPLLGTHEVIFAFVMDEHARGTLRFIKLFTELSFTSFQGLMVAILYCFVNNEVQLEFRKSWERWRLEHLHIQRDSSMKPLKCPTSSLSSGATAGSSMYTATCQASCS

Target: GLP-1R (Homo sapiens, UniProt P43220)
Settings: background statement; cited from earlier work

exendin 9-39 [Avexitide, reference compound]
clinical efficacy in hypoglycemia (in words): clinically demonstrated the efficacy of reversing hypoglycemia
